# Measured values from patent publication US11236106B2, “Cycloalkane-1,3-diamine derivative” (Daiichi Sankyo Company, Limited, priority 2018, dated 2022).
# Tests used:
# Assay in all cases: cells
# Details in all cases: Homo sapiens
# K562 cells = tested on: K562 cells
# MV-4-11 cells = tested on: MV-4-11 cells
# MOLM-13 cells = tested on: MOLM-13 cells
# [1] = K562, 72 h, read-out: GI50, cell growth inhibitory activity, K562, day 3
# [2] = K562, 168 h, read-out: GI50, cell growth inhibitory activity, K562, day 7
# [3] = MV4-11, 72 h, read-out: GI50, cell growth inhibitory activity, MV-4-11, day 3, MV-4-11 cells, cultured 3 days, assigned by order and values
# [4] = MV4-11, 168 h, read-out: GI50, cell growth inhibitory activity, MV-4-11, day 7, MV-4-11 cells, cultured 7 days, assigned by order and values
# [5] = MOLM-13, 72 h, read-out: GI50, cell growth inhibitory activity, MOLM-13, day 3, MOLM-13 cells, cultured 3 days, assigned by order and values
# [6] = MOLM-13, 168 h, read-out: GI50, cell growth inhibitory activity, MOLM-13, day 7, MOLM-13 cells, cultured 7 days, assigned by order and values
# [7] = K562, 72 h, read-out: GI50 (μM) Day3 K562
# [8] = K562, 168 h, read-out: GI50 (μM) Day7 K562
# [9] = MV4-11, 72 h, read-out: GI50 (μM) Day3 MV4;11, MV4;11, Day3
# [10] = MV4-11, 168 h, read-out: GI50 (μM) Day7 MV4;11, MV4;11, Day7
# [11] = MOLM-13, 72 h, read-out: GI50 (μM) Day3 MOLM-13, MOLM-13, Day3
# [12] = MOLM-13, 168 h, read-out: GI50 (μM) Day7 MOLM-13, MOLM-13, Day7
# [13] = MOLM-13, 168 h, read-out: GI50, cell growth inhibitory activity, MOLM-13, day 7
compound,measurement,setting,value
"COc1cc(-c2ccc(CN[C@H]3C[C@@H](O)[C@@H](N(C)c4nc(Cl)nc5sc(CC(F)(F)F)cc45)C3)cc2)nnc1OC [Example 93, (1R,2S,4R)-2-{[2-chloro-6-(2,2,2-trifluoroethyl)thieno[2,3-d]pyrimidin-4-yl](methyl)amino}-4-({[4-(5,6-dimethoxypyridazin-3-yl)phenyl]methyl}amino)cyclopentan-1-ol hydrochloride]",GI50,K562 cells; [1],1.38 µM
same,GI50,K562 cells; [2],1.41 µM
same,GI50,MV-4-11 cells; [3],0.0552 µM
same,GI50,MV-4-11 cells; [4],0.0357 µM
same,GI50,MOLM-13 cells; [5],0.659 µM
same,GI50,MOLM-13 cells; [6],0.107 µM
"C=CS(=O)(=O)NCCCNC(=O)c1ccc(CN[C@H]2CC[C@@H](N(C)c3ncnc4sc(CC(F)(F)F)cc34)C2)cc1 [Example 34, N-{-3-[(ethenesulfonyl)amino]propyl}-4-({[(1S,3R)-3-{methyl[6-(2,2,2-trifluoroethyl)thieno[2,3-d]pyrimidin-4-yl]amino}cyclopentyl]amino}methyl)benzamide hydrochloride]",GI50,K562 cells; [7],4.49 µM
same,GI50,K562 cells; [8],2.77 µM
same,GI50,MV-4-11 cells; [9],0.42 µM
same,GI50,MV-4-11 cells; [10],0.106 µM
same,GI50,MOLM-13 cells; [11],0.718 µM
same,GI50,MOLM-13 cells; [12],0.444 µM
"CN(c1ncnc2sc(CC(F)(F)F)cc12)[C@H]1C[C@@H](NCc2ccc(-n3cnc4ccccc43)cc2)C[C@H]1O [Example 79, (1R,2S,4R)-4-({[4-(1H-benzimidazol-yl)phenyl]methyl}amino)-2-{methyl[6-(2,2,2-trifluoroethyl)thieno[2,3-d]pyrimidin-4-yl]amino}cyclopentan-1-ol hydrochloride]",GI50,K562 cells; [1],4.34 µM
same,GI50,K562 cells; [2],2.12 µM
same,GI50,MV-4-11 cells; [3],0.313 µM
same,GI50,MV-4-11 cells; [4],0.173 µM
same,GI50,MOLM-13 cells; [5],1.64 µM
same,GI50,MOLM-13 cells; [6],0.482 µM
"CNc1nc(N(C)[C@H]2C[C@@H](NCc3ccc(Nc4cccnc4)cc3)C[C@@H]2O)c2cc(CC(F)(F)F)sc2n1 [Example 54, (1S,2S,4R)-2-{methyl[2-(methylamino)-6-(2,2,2-trifluoroethyl)thieno[2,3-d]pyrimidin-4-yl]amino}-4-[({4-[(pyridin-3-yl)amino]phenyl}methyl)amino]cyclopentan-1-ol hydrochloride]",GI50,K562 cells; [7],3.13 µM
same,GI50,K562 cells; [8],2.18 µM
same,GI50,MV-4-11 cells; [9],0.0669 µM
same,GI50,MV-4-11 cells; [10],0.0279 µM
same,GI50,MOLM-13 cells; [11],1.33 µM
same,GI50,MOLM-13 cells; [12],0.0579 µM
"CN(c1ncnc2sc(CC(F)(F)F)cc12)[C@@H]1CC[C@H](NCc2ccc(S(=O)(=O)N3CCCC(O)C3)cc2)C1 (mixture of isomers) [Example 57, l-[4-({[(1S,3R)-3-{methyl[6-(2,2,2trifluoroethyl)thieno[2,3-d]pyrimidin-4-yl]amino}cyclopentyl]amino}methyl)benzene-1-sulfonyl]piperidin-3-ol hydrochloride (diastereomer mixture)]",GI50,K562 cells; [7],6.3 µM
same,GI50,K562 cells; [8],3.03 µM
same,GI50,MV-4-11 cells; [9],1.16 µM
same,GI50,MV-4-11 cells; [10],0.689 µM
same,GI50,MOLM-13 cells; [11],2.14 µM
same,GI50,MOLM-13 cells; [12],1.56 µM
"COc1cncc(-c2ccc(CN(C)[C@@H]3C[C@H](O)C[C@H](Nc4ncnc5sc(CC(F)(F)F)cc45)C3)cc2)c1 [Example 16, (1R,3S,5R)-3-[{[4-(5-methoxypyridin-3-yl)phenyl]methyl}(methyl)amino]-5-{[6-(2,2,2-trifluoroethyl)thieno[2,3-d]pyrimidin-4-yl]amino}cyclohexan-1-ol]",GI50,K562 cells; [7],7.43 µM
same,GI50,MV-4-11 cells; [9],5.18 µM
same,GI50,MOLM-13 cells; [11],6.04 µM
"COc1nc(N(C)[C@H]2C[C@@H](NCc3ccc(-c4cc(OC)c(OC(F)F)nn4)cc3)C[C@H]2O)c2cc(CC(F)(F)F)sc2n1 [Example 119, (1R,2S,4R)-4-[({4-[6-(difluoromethoxy)-5-methoxypyridazin-3-yl]phenyl}methy)amino]-2-{[2-methoxy-6-(2,2,2-trifluoroethyl)thieno[2,3-d]pyrimidin-4-yl](methyl)amino}cyclopentan-1-ol hydrochloride]",GI50,MOLM-13 cells; [13],0.0637 µM
"CNc1nc(N(C)[C@H]2C[C@@H](NCc3ccc(-c4cnn(S(C)(=O)=O)c4)cc3)C[C@H]2O)c2cc(CC(F)(F)F)sc2n1 [Example 62, (1R,2S,4R)-4[({4[1-(methanesulfonyl)-1H-pyrazol-4-yl]phenyl}methyl)amino]-2-{methyl[2-(methylamino)-6-(2,2,2-trifluoroethyl)thieno[2,3-d]pyrimidin-4-yl]amino}cyclopentan-1-ol hydrochloride]",GI50,K562 cells; [1],2.69 µM
same,GI50,K562 cells; [2],2.59 µM
same,GI50,MV-4-11 cells; [3],0.113 µM
same,GI50,MV-4-11 cells; [4],0.0666 µM
same,GI50,MOLM-13 cells; [5],1.06 µM
same,GI50,MOLM-13 cells; [6],0.199 µM
"O=C(NC1COC1)c1ccc(CN[C@H]2CCC[C@@H](Nc3ncnc4sc(CC(F)(F)F)cc34)C2)cc1 [Example 10, N-(oxetan-3-yl)-4-({[(1S,3R)-3-{[6-(2,2,2-trifluoroethyl)thieno[2,3-d]pyrimidin-4-yl]amino}cyclohexyl]amino}methyl)benzamide Hydrochloride]",GI50,K562 cells; [7],> 10 µM
same,GI50,MV-4-11 cells; [9],> 10 µM
same,GI50,MOLM-13 cells; [11],> 10 µM
"CN(c1ncnc2cc(CC(F)(F)F)sc12)[C@@H]1CC[C@H](NCc2ccc3[nH]c(C#N)cc3c2)C1 [Example 4, 5-({[(1S,3R)-3-{methyl[6-(2,2,2-trifluoroethyl)thieno[3,2-d]pyrimidin-4-yl]amino}cyclopentyl]amino}methyl)-1H-indole-2-carbonitrile]",GI50,K562 cells; [7],4.37 µM
same,GI50,MV-4-11 cells; [9],1.32 µM
"N#Cc1cc2cc(CN[C@@H]3CC[C@@H](Nc4ncnc5sc(CC(F)(F)F)cc45)C3)ccc2[nH]1 [Example 1, 5-({[(1R,3R)-3-{[6-(2,2,2-trifluoroethyl)thieno[2,3-d]pyrimidin-4-yl]amino}cyclopentyl]amino}methyl)-1H-indole-2-carbonitrile Hydrochloride]",GI50,K562 cells; [7],5.09 µM
same,GI50,MV-4-11 cells; [9],1.79 µM
"CN(c1ncnc2ccc(CC(F)(F)F)cc12)[C@@H]1CC[C@H](NCc2ccc(O)cc2)C1 [Example 5, 4-({[(1S,3R)-3-{methyl[6-(2,2,2-trifluoroethyl)quinazolin-4-yl]amino}cyclopentyl]amino}methyl)phenol Hydrochloride]",GI50,K562 cells; [7],> 10 µM
same,GI50,MV-4-11 cells; [9],3.12 µM
"CN(c1ncnc2sc(CC(F)(F)F)cc12)[C@@H]1CC[C@H](NCc2ccc(OCCO)c(F)c2)C1 [Example 31, 2-[2-fluoro-4-({[(1S,3R)-3-{methyl[6-(2,2,2-trifluoroethyl)thieno[2,3-d]pyrimidin-4-yl]amino}cyclopentyl]amino}methyl)phenoxy]ethan-1-ol hydrochloride]",GI50,K562 cells; [7],> 10 µM
same,GI50,MV-4-11 cells; [9],1.29 µM
"CN(c1ncnc2sc(CC(F)(F)F)cc12)[C@@H]1CC[C@H](NCc2cnn(-c3ccccc3)c2)C1 [Example 32, (1R,3S)-N^1-methyl-N^3-[(1-phenyl-1H-pyrazol-4-yl)methyl]-N^1-[6-(2,2,2-trifluoroethyl)thieno[2,3-d]pyrimidin-4-yl]cyclopentane-1,3-diamine hydrochloride]",GI50,K562 cells; [7],5.59 µM
same,GI50,MV-4-11 cells; [9],2.43 µM
"Cc1c(CN[C@H]2CC[C@@H](N(C)c3ncnc4sc(CC(F)(F)F)cc34)C2)ccc2c1cc(C#N)n2Cc1cn[nH]c1 [Example 2, 4-methyl-5-({[(1S,3R)-3-{methyl[6-(2,2,2-trifluoroethyl)thieno[2,3-d]pyrimidin-4-yl]amino}cyclopentyl]amino}methyl)-1-[(1H-pyrazol-4-yl)methyl]-1H-indole-2-carbonitrile Hydrochloride]",GI50,K562 cells; [7],2.81 µM
same,GI50,MV-4-11 cells; [9],0.33 µM
"[2H]C([2H])([2H])N(c1ncc(-c2ccc(CN[C@H]3C[C@@H](O)[C@@H](N(C)c4ncnc5sc(CC(F)(F)F)cc45)C3)cc2)cc1OC)C([2H])([2H])[2H] [Example 122, (1R,2S,4R)-4-({[4-(6-{bis[(^2H3)methyl]amino}-5-methoxypyridin-3-yl)phenyl]methyl}amino)-2-{methyl[6-(2,2,2-trifluoroethyl)thieno[2,3-d]pyrimidin-4-yl]amino}cyclopentan-1-ol]",GI50,MOLM-13 cells; [13],0.236 µM
"CN(c1ncnc2sc(CC(F)(F)F)cc12)[C@@H]1CC[C@H](NCC2CCCCC2)C1 [Example 28, (1R,3S)-N^3-(cyclohexylmethyl)-N^1-methyl-N^1-[6-(2,2,2-trifluoroethyl)thieno[2,3-d]pyrimidin-4-yl]cyclopentane-1,3-diamine hydrochloride]",GI50,K562 cells; [7],6.31 µM
same,GI50,MV-4-11 cells; [9],5.34 µM
"CN(c1ncnc2sc(CC(F)(F)F)cc12)[C@@H]1CC[C@H](NCc2ccc(OCCN3CCOCC3)cc2)C1 [Example 30, (1R,3S)-N^1-methyl-N^3-({4-[2-(morpholin-4-yl)ethoxy]phenyl}methyl)-N^1-[6-(2,2,2-trifluoroethyl)thieno[2,3-d]pyrimidin-4-yl]cyclopentane-1,3-diamine hydrochloride]",GI50,K562 cells; [7],2.34 µM
same,GI50,MV-4-11 cells; [9],0.867 µM
"CN(c1ncnc2sc(CC(F)(F)F)nc12)[C@@H]1CC[C@H](NCc2ccc3[nH]c(C#N)cc3c2)C1 [Example 3, 5-({[(1S,3R)-3-{methyl[2-(2,2,2-trifluoroethyl)[1,3]thiazolo[5,4-d]pyrimidin-7-yl]amino}cyclopentyl]amino}methyl)-1H-indole-2-carbonitrile Hydrochloride]",GI50,K562 cells; [7],3.78 µM
same,GI50,MV-4-11 cells; [9],0.748 µM

# Structures can show the parent of a compound that is named as a salt. Where two headings read alike, the source gives them in different places.
